XiGFP reactiv – activators of inactive X chromosome reactivation, primary screen, imaging, XiGFP fibroblasts, GFP high-content imaging, set 2 | AID 743238, 2013 | activation, % at 7.58 µM | XiGFP mouse fibroblasts, % GFP-positive cells imaging, 3 d; cells co-treated with 5-aza-dC sensitizer; scaled so ellipticine positive control = 100% | hit rate 0.055% among 360,000;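 active = mean normalized replicate activation at least 10% and every replicate at or above 10%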;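 note: 0% = median of on-plate neutral control wells and 100% = ellipticine 6 µM median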
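assay system = SV40-immortalized XiGFP fibroblast cells, line 68-5-11 | buffer or medium = DMEM plus 5-aza-dC sensitizer | doses = single-point pinned compound dosing | times = 3-day compound exposure, then 15 min fixation at room temperature | benchmarks = positive control ellipticine, 6 µM final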
RAD52 inh – RAD52 DNA annealing inhibitors, primary screen, biochemical, FRET, single point, set 2; DNA repair protein RAD52 homolog (Homo sapiens), P43351; recombinant RAD52 DNA annealing, FRET fluorescence; inhibition, % at 18.7 µM; hit rate 0.46% among 360,000; AID 651710, 2012;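 active = every replicate showing at least 50% inhibition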
E-sel inducer – E-selectin induction in HUVECs, primary screen, imaging, HUVEC, immunofluorescence imaging, single point. activation, % at 7.58 µM. AID 686992, 2013. hit rate 0.37% among 260,000. P16581. normalized: neutral wells 0, TNF-alpha wells 100;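 active = mean E-selectin-positive cell signal at least 10% of the positive control, reached in at least 60% of replicates, without over 20% cell loss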
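Assay system: HUVEC, human umbilical vein endothelial cells / Amount: 3,000 HUVEC/well / Controls: TNF-alpha positive control, DMSO neutral control / Compound dosing: single concentration / Medium: EGM-2 over gelatin coat / Evaluation: percent E-selectin-positive cells / Signal: immunofluorescence imaging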
RAD54 inh – inhibitors of human RAD54 branch migration, primary screen, biochemical, fluorescence, single point | DNA repair and recombination protein RAD54-like (Homo sapiens), Q92698 | RAD54 Holliday junction branch migration, FAM/BHQ fluorescence | inhibition, % at 10.4 µM | hit rate 0.14% among 360,000 | AID 602329, 2012;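 active = mean normalized replicate activity at least 40 and at least half of replicates scoring 40 or more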;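 note: 0% = median of neutral control wells and 100% = median of positive control wells; inhibitors cause a drop in the FAM fluorescence signal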
Yeast UUG start – modulators of start codon recognition fidelity in yeast; AID 602363; hit rate 0.13% among 350,000; activity score, % at 18.7 µM; S. cerevisiae UUG-firefly luciferase reporter, luminescence/redox ratio;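 active = replicate mean at a twofold rise or more, about +100% in these data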;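 note: firefly luciferase made from a UUG start codon reports start codon fidelity; reporter light over untreated wells divided by growth signal over untreated wells; some hits fall short of that in this replicate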
* = called active by the depositor; · = no result. Sampled rows, rich in hits. Any-hit rate of the full collection: about 0.73%.

Field names: A = XiGFP reactiv; B = RAD52 inh; C = E-sel inducer; D = RAD54 inh; E = Yeast UUG start
1) Cc1ccc(-c2ccc([C@H]3[C@@H](CO)N4CCCCN(S(=O)(=O)c5cccc(C)c5)C[C@H]34)cc2)cc1
  A: ·; B: 69.8*; C: ·; D: 3.9; E: -6.2

2) Cc1cccc(S(=O)(=O)N2CCCCN3[C@@H](CO)[C@@H](c4ccc(-c5ccccc5)cc4)[C@@H]3C2)c1
  A: ·; B: 63.5*; C: ·; D: 5.0; E: 3.8

3) Cc1cccc(S(=O)(=O)N2CCCCN3[C@H](CO)[C@H](c4ccc(-c5ccccc5)cc4)[C@H]3C2)c1
  A: ·; B: 43.7; C: ·; D: 3.8; E: -5.6

4) CC(=O)N1[C@@H]2Cn3c(ccc(-c4ccncc4)c3=O)[C@H]1[C@@H](C(=O)NC1Cc3ccccc3C1)[C@@H]2CO
  A: 0.5; B: -4.4; C: -0.1; D: -7.0; E: ·

5) CC(C)C[C@@H](CNCC(=O)[C@H](Cc1c[nH]c2ccccc12)NC(=O)c1[nH]cnc1C(=O)N[C@H](CN)CC(C)C)NC(=O)c1nc[nH]c1C(=O)N[C@@H](CC(=O)O)C(=O)O
  A: 0.0; B: -23.6; C: -0.1; D: -17.9; E: 154.2*

6) CC(C)C[C@@H](CN)NC(=O)c1nc[nH]c1C(=O)N[C@@H](Cc1ccccc1)C(=O)CNC[C@H](C)NC(=O)c1nc[nH]c1C(=O)N[C@@H](CC(=O)O)C(=O)O
  A: 0.0; B: -14.2; C: 13.0; D: -12.9; E: 12.7

7) CC(C)C[C@@H](CNCC(=O)[C@H](Cc1c[nH]c2ccccc12)NC(=O)c1[nH]cnc1C(=O)N[C@@H](C)CN)NC(=O)c1nc[nH]c1C(=O)N[C@@H](CC(=O)O)C(=O)O
  A: 0.0; B: -15.7; C: 0.1; D: -5.1; E: 154.3*

8) CC(C)C[C@@H](CNCC(=O)[C@H](Cc1c[nH]c2ccccc12)NC(=O)c1[nH]cnc1C(=O)N[C@@H](C)CN)NC(=O)c1nc[nH]c1C(=O)N[C@@H](C)C(=O)O
  A: -0.2; B: -5.9; C: -0.1; D: -7.1; E: 141.4*

9) COc1ccc2c3c([nH]c2c1)[C@H](CO)N(C(=O)CN(C)C)CC31CN(Cc2ccccc2)C1
  A: 0.0; B: 55.2*; C: -0.6; D: ·; E: ·

10) COc1ccc2c3c([nH]c2c1)[C@H](CO)N(C(=O)CN(C)C)CC31CN(CC2CC2)C1
  A: 0.0; B: 50.2*; C: -0.1; D: ·; E: ·

11) COc1ccc2c3c([nH]c2c1)[C@@H](CO)N(Cc1ccc(Cl)cc1)CC31CCN(Cc2nccs2)CC1
  A: 0.2; B: -42.2; C: -0.1; D: ·; E: ·

12) COc1ccc2c3c([nH]c2c1)[C@@H](CO)N(Cc1nccs1)CC31CCN(Cc2cccnc2)CC1
  A: 0.1; B: 60.4*; C: -0.3; D: ·; E: ·

13) COc1ccc2c3c([nH]c2c1)[C@@H](CO)N(C(=O)CN(C)C)CC31CN(CC2CC2)C1
  A: 0.0; B: 55.9*; C: 0.4; D: ·; E: ·

14) COc1ccc2c3c([nH]c2c1)[C@H](CO)N(C(=O)CN(C)C)CC31CN(CC2CCCC2)C1
  A: 0.1; B: 49.3; C: -0.4; D: ·; E: ·

15) Cc1c(CCOC(=O)CC23CC4CC(CC(C)(C4)C2)C3)sc[n+]1CC(=O)c1ccccc1
  A: 0.0; B: 62.4*; C: ·; D: ·; E: ·

16) Cc1noc(C)c1CSCC(=O)Nc1cc(C(F)(F)F)ccc1N1CCOCC1
  A: 0.0; B: -20.9; C: 40.7*; D: 1.2; E: -15.0

17) CCN(CC)S(=O)(=O)c1ccc(N2CCOCC2)c(NC(=O)CSCc2c(C)noc2C)c1
  A: 0.2; B: -4.9; C: ·; D: 4.0; E: 2.5

18) COc1ccc2[nH]c(=O)cc(C(=O)O)c2c1
  A: 0.0; B: -8.0; C: 4.4; D: ·; E: ·

19) COc1ccc2[nH]c3c4c(ccc3c2c1)C(=O)C=CC4=O
  A: 12.2*; B: -7.1; C: 0.5; D: -10.9; E: 7.0

20) COc1cc(NC(=O)C/C(C)=N/NC(=O)C2CCCCC2)c(OC)cc1Cl
  A: 0.2; B: -8.7; C: 56.0*; D: -3.4; E: -8.3

Down the list, quoted from above.
XiGFP reactiv for nos. 13–20 → 0.0, 0.1, 0.0, 0.0, 0.2, 0.0, 12.2*, 0.2
E-sel inducer for nos. 13–20 → 0.4, -0.4, ·, 40.7*, ·, 4.4, 0.5, 56.0*

The main list resumes; the three compounds before the break are reprinted first.
Field names: A = XiGFP reactiv; B = RAD52 inh; C = E-sel inducer; D = RAD54 inh; E = Yeast UUG start
18) COc1ccc2[nH]c(=O)cc(C(=O)O)c2c1
  A: 0.0; B: -8.0; C: 4.4; D: ·; E: ·

19) COc1ccc2[nH]c3c4c(ccc3c2c1)C(=O)C=CC4=O
  A: 12.2*; B: -7.1; C: 0.5; D: -10.9; E: 7.0

20) COc1cc(NC(=O)C/C(C)=N/NC(=O)C2CCCCC2)c(OC)cc1Cl
  A: 0.2; B: -8.7; C: 56.0*; D: -3.4; E: -8.3

21) COc1cc(NC(=O)C/C(C)=N/NC(=O)C(=O)NC2CCCCC2)c(OC)cc1Cl
  A: -0.1; B: -5.7; C: 10.7; D: ·; E: ·

22) O=C(C[C@@H]1C[C@H]2c3cc(NC(=O)C4CCOCC4)ccc3O[C@H]2[C@H](CO)O1)NCc1cccc(F)c1
  A: -0.1; B: 3.4; C: 0.8; D: -10.0; E: 22.6

23) COc1ccc(C)cc1Nc1nc(N)c2cc(OC)c(OC)cc2n1
  A: ·; B: ·; C: ·; D: 50.9*; E: 3.1

24) COc1ccc(Cl)cc1Nc1nc(N)c2ccccc2n1
  A: 0.0; B: 23.4; C: ·; D: 20.4; E: -8.3

25) C[C@@H]1CN([C@H](C)CO)C(=O)Cc2cc(NS(=O)(=O)c3cccs3)ccc2O[C@H]1CN(C)Cc1ccc(C(=O)Nc2ccccc2N)cc1
  A: 0.0; B: 18.2; C: -2.4; D: ·; E: ·

26) C[C@@H]1CN([C@H](C)CO)C(=O)c2cccc(NC(=O)c3ccncc3)c2O[C@H]1CN(C)Cc1ccc(C(=O)Nc2ccccc2N)cc1
  A: 0.0; B: -1.2; C: 5.1; D: 4.9; E: 0.5

27) C[C@H]1CN([C@@H](C)CO)C(=O)c2cccc(NS(=O)(=O)c3cccs3)c2O[C@@H]1CN(C)Cc1ccc(C(=O)Nc2ccccc2N)cc1
  A: 0.1; B: -4.9; C: 392.0*; D: ·; E: ·

28) C[C@H]1CN([C@@H](C)CO)C(=O)c2cccc(NC(=O)c3ccncc3)c2O[C@H]1CN(C)Cc1ccc(C(=O)Nc2ccccc2N)cc1
  A: -0.1; B: 19.4; C: 50.9*; D: ·; E: ·

29) C[C@@H]1CN([C@H](C)CO)C(=O)c2cccc(NS(=O)(=O)c3cccs3)c2O[C@H]1CN(C)Cc1ccc(Cl)c(Cl)c1
  A: 0.0; B: 17.4; C: 348.6*; D: -2.7; E: 13.5

30) C[C@H](CO)N1C[C@H](C)[C@H](CN(C)Cc2ccc(C(=O)Nc3ccccc3N)cc2)Oc2ccc(NS(=O)(=O)c3cccs3)cc2CC1=O
  A: 0.1; B: -0.6; C: 58.8*; D: -6.1; E: -2.5

Next section
Values run as follows: XiGFP reactiv	RAD52 inh	E-sel inducer	RAD54 inh	Yeast UUG start
31. CCS(=O)(=O)Nc1ccc2c(c1)C(=O)N(C)C[C@@H](OC)[C@H](C)CN(C(=O)COC)[C@@H](C)CO2
 : 0.4	12.2	0.1	0.2	2.9
32. O=C(NCC[C@H]1CC[C@@H](NS(=O)(=O)Cc2ccccc2)[C@@H](CO)O1)C1CCCCC1
 : 0.5	-8.8	0.1	-3.0	9.6
33. N#C[C@@H]1[C@H](c2ccc(-c3ccc(F)cc3)cc2)[C@@H](CO)N1c1nc(-c2ccccc2)cs1
 : 0.1	62.9*	-0.3	·	·
34. CC(=O)C1=C(C)Nc2ncnn2C1c1ccc(O)cc1 (stereo unspecified)
 : 0.2	-6.1	44.1*	4.8	-17.3
35. C[C@@H]1CN([C@H](C)CO)C(=O)Cc2cc(NC(=O)Nc3ccc(C(F)(F)F)cc3)ccc2O[C@H]1CN(C)Cc1ccc(Oc2ccccc2)cc1
 : 0.0	·	445.6*	-5.0	-6.4
36. C[C@H](CO)N1C[C@H](C)[C@@H](CN(C)Cc2ccccc2)Oc2ccc(NC(=O)Nc3ccc(C(F)(F)F)cc3)cc2CC1=O
 : -0.1	54.1*	-0.3	-3.7	4.7
37. C[C@H](CO)N1C[C@H](C)[C@H](CN(C)Cc2ccccc2)Oc2ccc(NC(=O)Nc3ccc(C(F)(F)F)cc3)cc2CC1=O
 : 6.9	6.0	0.2	-3.7	7.2
38. CO[C@H]1CN(C)C(=O)c2ccc(NC(=O)c3ccc(Oc4ccccc4)cc3)cc2OC[C@H](C)NC[C@H]1C
 : 0.1	52.0*	0.8	7.2	-4.5
